The test system of assay [1] is A549 human non-small cell lung cancer cells. As to the kind of experiment: A549 cell proliferation assay (Quick Cell Proliferation Assay). In kind it is cell-based. The following applies: 48 h. The procedure: The human non-small cell lung cancer (NSCLC) cell line A549 was used in this study (ATCC, Manassas, Va., USA). A549 cells were maintained in DMEM with 10% FBS and antibiotics (Fisher scientific, Pittsburgh, Pa.) in a humidified incubator with 5% CO2 at 37° C. Cells were not used beyond 10 passages. Cells were plated in serum free medium at a density of 10,000 cells/well and allowed to attach for 24 h. RhBMP-2 (INFUSE®, Medtronic Sofamor Danek, Minneapolis, Minn.) was added to fresh serum-free media at final concentrations of 0, 1, 10, 50, 100, and 500 ng/ml. Recombinant spp24 was prepared as described previously (Murray E J B, et al., Connect Tiss Res 2007; 48:1-8) and added in serum-free media to final concentrations of 10, 25, 50, 75 μg/ml. Cells were incubated for 48 h before cell proliferation was assessed using Quick Cell Proliferation Assay (BioVision, Mountain View, Calif., USA) according to manufacturer's recommendations. Results were reported as a percentage compared with untreated cells.

Assay [2] has as its system A549 cells. The assay can be described thus: Subcutaneous implantation of A549 cells and direct measurement of tumor size. Type of assay: in vivo, SCID mice. The text has this:
(§1) Forty, eight-week-old male SCID mice (weight 23.5 to 29.1 g, mean 27.1 g) were housed under pathogen-free conditions in accordance with the protocol approved by the Chancellor's Animal Research Committee (ARC) at the University of California, Los Angeles. There were four experimental groups in this study, and each group underwent implantation of cells in both a subcutaneous model and an intra-tibial injection. Group I animals received A549 cells alone as a control group. Group II animals received A549 cells+rhBMP-2 (10 μg/10 μl). Group III received an A549 cells+spp24 (1000 μg). Group IV received an A549 cells+rhBMP2+spp24. There were 10 animals in each group.
A549 cells (1×10^5) were suspended in 15 μl of 1×PBS and 15 μl Affi-Gel Blue (BioRad Laboratories, Hercules, Calif.) and injected into the subcutaneous space on the backs of mice. Briefly, after the SCID mice were anesthetized, then maintained via an isoflurane face mask, the overlying skin was prepped in sterile fashion with 70% ethanol and betadine. Different materials and A549 cells were then injected into the subcutaneous space on the backs of SCID mice. Animals were killed at 8 weeks or earlier if large tumor size exceeded that permitted by the ARC protocol and the tumor removed. Tumors were measured in three dimensions (length×width×depth). These measurements were repeated by three observers blinded to treatment group. […]

Assay [3] has as its system A549 cells. The assay can be described thus: Intratibial implantation of A549 cells and radiographic analysis. In kind it is in vivo, SCID mice.
Source text: as §1
Tibial implantation of A549 cells plus experimental materials was performed as previously described.^14,15 Mice were anesthetized with isoflurane, then maintained via an isoflurane face mask. The overlying skin was prepped in a sterile fashion with 70% ethanol and betadine. A 3-mm longitudinal incision was made over the patellar ligament with a no. 11 scalpel blade and a 2-mm longitudinal incision was then made along the medial border of the patellar ligament to the tibial plateau. A 27.5-gauge needle was introduced through the proximal tibial plateau and into the proximal tibia. Thirty microliters of a suspension containing 1×10^5 A549 cells in 15 H.1 of 1×PBS with 15 μl of Affi-Gel Blue containing the appropriate test materials was injected into the cavity. The wound was closed with a single 5-0 Vicryl suture. At 8 weeks, prior to their sacrifice, animals were anesthetized as previously described, and radiographs were obtained using a Faxitron X-ray cabinet (Faxitron, Inc. Lincolnshire, Ill.). Three independent observers blinded to the treatment groups evaluated the radiographs for the presence of osteoblastic and osteolytic lesions. Radiographs were scored as follows: 0-normal; 1-lytic lesion present within the medullary canal only; 2-obliteration of one cortex; 3-obliteration of two cortices.

Assay [4] deals with A549 cells. As to the kind of experiment: Histologic and histomorphometric analysis of A549 tumors (subcutaneous and tibiae). Type of assay: in vivo, SCID mice.
Source text: as §1
Animals were killed at 8 weeks (or earlier if required by an excessive tumor size) and both the soft tissue tumor and the hind limb were harvested for histological analysis. Soft tissue tumors were fixed in 10% buffered formalin. The tibias were fixed in 10% buffered formalin followed by decalcification in a solution of 10% EDTA for 2 weeks at room temperature with gentle stirring. Longitudinal sections of the proximal tibia were prepared and stained with H&E. For histologic and histomorphometric analyses, all microscopic slides were scanned with a ScanScope GL (Aperio Technologies, Inc., Vista, Calif.) equipped with a 20× objective. The following parameters were considered in the qualitative analysis: amount of tumor cells between cortices from the proximal tibia; anterior and posterior cortical destruction and remodeling; new bone formation within the medullary canal; and anterior/posterior extension of bone formation outside the medullary canal. These histologic findings were graded with the following scale: 0 (none), 1 (mild), 2 (moderate), 3 (intense). Bone volume and tumor volume, expressed as a percentage of total tissue volume (% BV/TV and % TuV/TV, respectively) were quantified in whole-slide images using Spectrum software (Aperio Technologies, Inc. Vista, Calif.).

Setting [5] is: tibiae, grade 0 (none) to 3 (intense), mean.

For the substance “rhBMP-2: recombinant human bone morphogenetic protein-2 (INFUSE, Medtronic Sofamor Danek)”, in assay [1] (agent alone, serum-free media, rhBMP-2 0-500 ng/ml, spp24 10-75 μg/ml), the “effect on A549 cell proliferation” value was “significantly increased proliferation in a dose-dependent manner”. In assay [1] (in vitro), the “dose of maximal effect on A549 cell growth” value was determined as 50 ng/mL. Moreover, the “increase of subcutaneous tumor volume versus cells alone” value in the assay on A549 cells [2] (8 weeks) is recorded as “about 3 fold”. The same substance registered a subcutaneous tumor volume in the assay on A549 cells [2] (8 weeks after co-injection with A549 cells, rhBMP-2 10 μg, spp24 1000 μg, cells alone 127.4±117.5, mean±SE per method) of 558.4±590.7 mm3. For the same substance, the “radiographic score, range” value in the assay on A549 cells [3] (8 weeks, score 0-3) was 1-3. In the assay on A549 cells [3] (8 weeks, score 0 normal to 3 obliteration of two cortices, cells alone 2.1), this substance had an average radiographic score of 2.4±1.1. Further, in the assay on A549 cells [3] (by 8 weeks), the “animals that formed an osteoblastic/osteolytic lesion” value is “Nine of 10”. In the assay with A549 cells [4] (longitudinal section of the proximal tibia at midline, mean), the “% TuV/TV (tumor volume/total volume)” value is recorded as 58.3%. In addition, the “tumor cells in histological specimens” value in the assay on A549 cells [4] (subcutaneous and intratibial sites, 8 weeks) is given as “abundant masses of adenocarcinoma cells”. Besides, the “% BV/TV (bone volume/total volume)” value in the assay with A549 cells [4] (tibia section, mean) is listed as 1.30%. In addition, in the assay on A549 cells [4] (setting [5]), the “Anterior cortex destruction (2)” value was found to be 3.0, the “Extension of bone formation outside the medullary canal (5)” value is given as 0.83, the “New bone formation within the medullary canal (4)” value stood at 0.50 and the “Posterior cortex destruction (3)” value amounted to 3.0. Moreover, in the assay on A549 cells [4] (tibiae, grade 0 (none), 1 (mild), 2 (moderate), 3 (intense), mean), the “Amount of tumor cells between cortices (1)” value turned out to be 3.0.

For the origin of these results see patent US8962569B2, “Compositions comprising spp24 peptide fragments” (The Regeants of the University of California, priority 2010, dated 2015).
